{"sequences": {"note": "The chains behind the UniProt entries cited, without tags or fusion partners.", "UniProt P32307, whole entry": "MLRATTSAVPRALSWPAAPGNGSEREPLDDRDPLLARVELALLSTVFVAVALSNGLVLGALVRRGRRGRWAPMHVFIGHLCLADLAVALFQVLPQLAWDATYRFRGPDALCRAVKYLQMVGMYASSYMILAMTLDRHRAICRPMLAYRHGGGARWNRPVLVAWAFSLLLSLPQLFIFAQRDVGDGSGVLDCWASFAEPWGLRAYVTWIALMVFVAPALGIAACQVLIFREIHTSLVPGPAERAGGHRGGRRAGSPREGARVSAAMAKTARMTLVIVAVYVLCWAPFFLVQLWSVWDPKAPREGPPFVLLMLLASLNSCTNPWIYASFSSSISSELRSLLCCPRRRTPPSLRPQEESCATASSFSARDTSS"}, "source": "ChEMBL document CHEMBL1129881", "about": "(Bioorg Med Chem Lett, 1997)", "molecular_target": "Vasopressin V2 receptor (Sus scrofa, UniProt P32307)", "assay": "Tested for the inhibition to V2 subtype receptor using [3H]- (VS2) as radioligand at 3 nM and arginine-vasopressin at 2 uM in LLCPKI cells", "assay_type": "cell-based", "data": [{"smiles": "NC(=O)CC[C@@H]1NC(=O)[C@H](Cc2ccccc2)NC(=O)[C@H](Cc2ccc(O)cc2)NC(=O)[C@@H](N)CSSC[C@@H](C(=O)N2CCC[C@H]2C(=O)N[C@@H](CCCN=C(N)N)C(=O)NCC(N)=O)NC(=O)[C@H](CC(N)=O)NC1=O", "note": "[VASOPRESSIN]", "values": [{"measurement": "IC50", "result": 3.3, "unit": "nM"}]}]}
